Reference: US20260272870A1, “COMPOSITION FOR USE IN PREVENTION AND/OR TREATMENT OF HUMAN TRANSTHYRETIN AMYLOIDOSIS” (priority 2023, published 2026)

Target: T1, TTR-oligomers in human plasma from ATTRv carriers (TTR V30M; one TTR A45T) (Homo sapiens, UniProt P02766, V50M)
T1 construct: Plasma from ATTR-V30M gene carriers as well as TTR wt was collected using EDTA tubes; from tissue; host or cells: human plasma (EDTA) of ATTRv gene carriers
Assay: In vitro treatment of human plasma from ATTRv carriers, TTR-oligomer sandwich ELISA (MAB39-44)
Assay type: biochemical
Conditions: 0-1000 μM (mostly 0-600 μM), 24 h, 37° C., FIG. 4-19
Description: Plasma from ATTR-V30M gene carriers as well as TTR wt was collected using EDTA tubes. All plasma samples were buffered by the addition of a 10× phosphate buffer pH 7.4 to acquire a final phosphate concentration corresponding to 20 mM, and then frozen in liquid nitrogen following storage at -80° C. Before analysis using the plasma was thawed and serial diluted in 20 mM phosphate, 150 mM NaCl, 0.3% tween-20 (PBS-T) following analysis in the below-described ELISA. Samples were only thawed once. […] Thereafter, a blocking buffer was added comprising 2% dry milk dissolved in TRIS 20 mM, pH7.5, 150 mM NaCl, and 0.3% Tween. The plate was washed 3*5 min with TRIS 20 mM, pH7.5, 150 mM NaCl, and 0.3% Tween, hereinafter called the wash buffer. Plasma was diluted 0-1000 times in wash buffer and incubated for 1 hour. Thereafter, the plate was washed 3*5 min with wash buffer. A polyclonal rabbit anti-TTR antibody A0002 (DAKO, Odense Denmark). diluted 1:1000 in blocking buffer, was added and incubated for 1 hour. The plate was washed 3*5 min with wash buffer. An anti-rabbit antibody conjugated to HRP enzyme, (Agrisera, Umeå […]), diluted 1:10 000 in blocking buffer was added and incubated for 1 hour. The plate was washed 3*5 min in wash buffer. […] Absorbance was measured at 550 nm. Alternatively, an enhanced chemoluminscense substrate (Agrisera, Umeå, […]) was used and the luminescence measured. […]

## D-pantethine [D-panthethine]
  levels of non-native TTR-oligomers in plasma: converts the non-native oligomers back to the native fold
